Experiments:
Experiment in all cases: CCK8 cell viability assay
Assay type in all cases: cell-based, human
[1] = tested on: HL-7702 normal liver cells
Protocol: (§1) Cell viability assay using the CCK8 reagent (Bimake, Shanghai, China) was conducted according to the manufacturer’s instructions. The cell proliferation data were used to calculate the cell viability. Briefly, HepG2, SMMC-7721, and HL-7702 cells with a density of 5 × 10^3 cells/well were seeded into each well of 96-well plates and incubated overnight. BCP stock solution (400 mM) was prepared in ethanol, and DOX and DDP stock solutions (20 mM) were individually prepared in DMSO. […] The dosages of DOX and DDP were previously determined ([Jehan et al., 2020]; [Farooq et al., 2023]). […] After 48 h, 10 µL of CCK8 reagent was added to each well, followed by 2 h incubation at 37°C and measurement of absorbance at 450 nm using a microplate reader (Molecular Devices, LLC.). […] The antiproliferative effects of BCP in combination with DOX and DDP were evaluated by the combination index (CI) using the formula: […] The effects of the combinatorial inhibition were visualized by isobologram analyses ([Tallarida, 2001]). The IC50 values of each cell line were arranged for the isobologram analysis so that the IC50 of DOX represents a point on the X-axis and the IC50 of BCP represents a point on the Y-axis. A line was drawn to link the two IC50 points. Each dot in the isobologram represented an IC50 value of a BCP and DOX combination. The dots above, on, or below the line indicate the “antagonistic,” “additive” and “synergistic” effects, respectively. The same method was used to obtain the CI value for the cotreatment of BCP and DDP.

[2] = tested on: HepG2 cells; details: HepG2, cotreatment with 150 μM BCP vs DOX or DDP alone
Protocol: as §1

[3] = tested on: SMMC-7721 cells; details: SMMC-7721, cotreatment with 150 μM BCP vs DOX or DDP alone
Protocol: as §1

fold lower IC50 in cotreatment than in treatment alone [2]: over 9 fold
fold lower IC50 in cotreatment than in treatment alone [3]: over 9 fold
Compound: COc1cccc2c1C(=O)c1c(O)c3c(c(O)c1C2=O)C[C@@](O)(C(=O)CO)C[C@@H]3O[C@H]1C[C@H](N)[C@H](O)[C@H](C)O1 [DOX, doxorubicin]
combination index (CI) ([1]; HL-7702, cotreatment with 75 μM BCP): 1.01
fold reduction of IC50 in cotreatment from individual treatment ([1]; HL-7702, cotreatment with 150 μM BCP vs DOX or DDP alone): less than 1.5 fold
